The values that follow are results of earlier work, collected in patent publication US20150030540A1 (Eli Lilly and Company, priority 2008, published 2015).

Chains of the proteins cited; added tags and fusions are not shown. Residues count along the entry.
UniProt P05067, 672-713 limits assumed: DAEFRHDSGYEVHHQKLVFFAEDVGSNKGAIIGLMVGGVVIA

The structures appear in SMILES notation. Bounds are passed on as bounds.

The data set has as its target T1, Aβ monomer (Homo sapiens, UniProt P05067).
T1 construct: Aβ monomer
The conditions noted are these: read-out: Binding Affinity IC50; cited from earlier work.

With `Cc1ccc2c(c1)sc(-c1ccc(N(C)C)cc1)[n+]2C` [Thioflavin T], the IC50 (in general, the concentration that inhibits the measured activity by half) was above 500 µM.
